The values below come from patent US20040121316A1 (priority 2002, published 2004).

Where two headings read alike, the source gives them in different places. Where only a bound is given, the exact number is not on record here.

The target of this assay is T1, recombinant HIV-1 protease (Human immunodeficiency virus type 1 group M subtype B, UniProt P04585).
T1 construct: Enzyme: recombinant HIV-1 protease expressed in E.Coli; purchased Bachem California, Inc. H-9040; host or cells: E. coli
Kind of assay: biochemical.

Setting [1] is: read-out: Enzymatic assay WT IC50/nM.

For the compound `Cc1ccc(C(=O)NC(Cc2ccc(OCP(=O)(O)O)cc2)C(O)CN(CC(C)C)S(=O)(=O)c2ccc(N)cc2)cc1O` (stereo not drawn), the Ki (in general, the equilibrium dissociation constant of an inhibitor or competing ligand from its target) (Ki (pM)) fell in the range of 100 to 1000 pM.

Consider `Cc1ccc(C(=O)NC(Cc2ccc(OCP(=O)(OCc3ccccc3)OCc3ccccc3)cc2)C(O)CN(CC(C)C)S(=O)(=O)c2ccc(N)cc2)cc1O` (stereo not drawn), for which, for the setting “Ki (pM)”, the Ki fell in the range of 100 to 1000 pM. `CC(C)CN(CC(O)C(Cc1ccc(OCP(=O)(O)O)cc1)NC(=O)OC1COC2OCCC12)S(=O)(=O)c1ccc(CN2CCOCC2)cc1` (stereo not drawn): the inhibition constant (Ki) (Ki (pM)) was above 1000 pM. In the case of `CC(C)CN(CC(O)C(Cc1ccc(OCP(=O)(O)O)cc1)NC(=O)OC1COC2OCCC12)S(=O)(=O)N1CCN(C)CC1` (stereo not drawn), the inhibitory constant (Ki) (Ki (pM)) is above 1000 pM. As to `CC(C)CN(CC(O)C(Cc1ccc(OCP(=O)(OCc2ccccc2)OCc2ccccc2)cc1)NC(=O)OC1COC2OCCC12)S(=O)(=O)N1CCN(C)CC1` (stereo not drawn), the Ki (Ki (pM)) was in the range of 100 to 1000 pM.

Take `CC(C)CN(CC(O)C(Cc1ccc(OCP(=O)(O)O)cc1)NC(=O)OC1COC2OCCC12)C(=O)OC(C)(C)C` (stereo not drawn): the Ki (Ki (pM)) was above 1000 pM. Consider `CC(C)CN(CC(O)C(Cc1ccc(OCP(=O)(OCc2ccccc2)OCc2ccccc2)cc1)NC(=O)OC1COC2OCCC12)C(=O)OC(C)(C)C` (stereo not drawn), for which the Ki (Ki (pM)) is above 1000 pM. Consider `CC(C)CN(CC(O)C(Cc1ccccc1)NC(=O)OC1COC2OCCC12)S(=O)(=O)c1ccc(OCP(=O)(OCc2ccccc2)OCc2ccccc2)cc1` (stereo not drawn), for which, under “Ki (pM)”, the Ki was 100 to 1000 pM. `CCOP(=O)(COc1cc(S(=O)(=O)N(CC(C)C)CC(O)C(Cc2ccccc2)NC(=O)OC2COC3OCCC23)ccc1OC)OCC` (stereo not drawn): the Ki (Ki (pM)) lay within 100 to 1000 pM.

For the compound `COc1ccc(S(=O)(=O)N(CC(C)C)CC(O)C(Cc2ccccc2)NC(=O)OC2COC3OCCC23)cc1OCP(=O)(OCc1ccccc1)OCc1ccccc1` (stereo not drawn), under “Ki (pM)”, the Ki was above 1000 pM. In the case of `CCOP(=O)(COc1cc(S(=O)(=O)N(CC(C)C)CC(O)C(Cc2ccccc2)NC(=O)OC2COC3OCCC23)ccc1O)OCC` (stereo not drawn), the Ki (Ki (pM)) was in the range of 100 to 1000 pM. Regarding `CCOP(=O)(COc1ccc(CC2C(O)C(O)C(Cc3ccccc3)N(Cc3ccccc3)C(=O)N2Cc2ccccc2)cc1)OCC` (stereo not drawn), the Ki (read-out: Enzymatic assay Ki) turned out to be 656 pM. The IC50 under setting [1] stood at 3.9 nM. Turning to `CCOC(=O)CNP(=O)(COc1ccc(CC(NC(=O)OC2COC3OCCC23)C(O)CN(CC(C)C)S(=O)(=O)c2ccc(OC)cc2)cc1)NCC(=O)OCC` (stereo not drawn) [Compound 16a], the Ki (HIV-1 protease inhibition Ki) was determined as 29 ± 8.2 pM.

`CCCCOC(=O)C(CC)NP(=O)(COc1ccc(CC(NC(=O)OC2COC3OCCC23)C(O)CN(CC(C)C)S(=O)(=O)c2ccc(OC)cc2)cc1)NC(CC)C(=O)OCCCC` (stereo not drawn) [Example 16f]: the Ki (HIV-1 protease inhibition Ki) was 3.5 ± 1.4 pM.

For the compound `CCCCOC(=O)C(CC(C)C)NP(=O)(COc1ccc(CC(NC(=O)OC2COC3OCCC23)C(O)CN(CC(C)C)S(=O)(=O)c2ccc(OC)cc2)cc1)NC(CC(C)C)C(=O)OCCCC` (stereo not drawn) [Example 16h], the Ki (HIV-1 protease inhibition Ki) came out at 31.7 ± 19.3 pM. As to `CCOC(=O)C(C)NP(=O)(COc1ccc(CC(NC(=O)OC2COC3OCCC23)C(O)CN(CC(C)C)S(=O)(=O)c2ccc(OC)cc2)cc1)OCc1ccccc1` (stereo not drawn) [Example 30e], the Ki (Ki) is below 10 pM. `CCOP(=O)(COc1ccc(S(=O)(=O)N(CC(C)C)CC(O)C(Cc2ccc(N)cc2)NC(=O)OC2COC3OCCC23)cc1)OCC` (stereo not drawn) [NH2, OEt]: the Ki (read-out: Ki) fell in the range of 100 to 1000 pM.

As to `CCOP(=O)(COc1ccc(S(=O)(=O)N(CC(C)C)CC(O)C(Cc2ccc(N(C)C)cc2)NC(=O)OC2COC3OCCC23)cc1)OCC` (stereo not drawn) [NMe2, OEt], the Ki (read-out: Ki) fell in the range of 10 to 100 pM. With `CC(C)CN(CC(O)C(Cc1ccc(OCCN(C)C)cc1)NC(=O)OC1COC2OCCC12)S(=O)(=O)c1ccc(OCP(=O)(OCc2ccccc2)OCc2ccccc2)cc1` (stereo not drawn) [OC2H4-NMe2, OBn], the Ki (read-out: Ki) was 10 to 100 pM.

Consider `CC(C)CN(CC(O)C(Cc1ccc(OCCN(C)C)cc1)NC(=O)OC1COC2OCCC12)S(=O)(=O)c1ccc(OCP(=O)(O)O)cc1` (stereo not drawn) [OC2H4NMe2, OH], for which the Ki (read-out: Ki) was below 10 pM.

As for `Nc1n[nH]c2ccc(CN3C(=O)N(CCCOCP(=O)(O)O)C(Cc4ccccc4)C(O)C(O)C3Cc3ccccc3)cc12` (stereo not drawn) [OCH2PO3H2], the Ki (read-out: Ki) is 809 pM. On to `CCOP(=O)(COc1ccc(CC2C(O)C(O)C(Cc3ccc(OC)cc3)N(Cc3cccc(N)c3)C(=O)N2Cc2cccc(N)c2)cc1)OCC` (stereo not drawn) [OCH3/Ph-mNH2/OCH2PO3Et2], for which the IC50 was 3.6 nM. For the same compound, the Ki (Enzymatic assay Ki (nM)) was below 10 pM. Regarding `CCOP(=O)(CCNC(=O)Oc1ccc(CC2C(O)C(O)C(Cc3ccc(OC)cc3)N(Cc3cccc(N)c3)C(=O)N2Cc2cccc(N)c2)cc1)OCC` (stereo not drawn) [OCH3/Ph-mNH2/OCONH(CH2)2PO3Et2], the IC50 under setting [1] is 11.3 nM. Consider `CCOP(=O)(CCNC(=O)Oc1ccc(CC2C(O)C(O)C(Cc3ccc(OC)cc3)N(Cc3ccc(O)cc3)C(=O)N2Cc2ccc(O)cc2)cc1)OCC` (stereo not drawn) [OCH3/Ph-pOH/OCONH(CH2)2PO3Et2], for which the IC50 came to 6.6 nM.

With `CC(C)CN(CC(O)C(Cc1ccccc1)NC(=O)OC1COC2OCCC12)S(=O)(=O)c1ccc(OCP(=O)(O)NC(C)C(=O)O)cc1` (stereo not drawn) [OH, Ala-OH], the “Ki (pM)” value was “+ +”. For `CC(C)CN(CC(O)C(Cc1ccc(O)cc1)NC(=O)OC1COC2OCCC12)S(=O)(=O)c1ccc(OCP(=O)(OCc2ccccc2)OCc2ccccc2)cc1` (stereo not drawn) [OH, OBn], the Ki (read-out: Ki) was 10 to 100 pM.

Regarding `CC(C)CN(CC(O)C(Cc1ccc(O)cc1)NC(=O)OC1COC2OCCC12)S(=O)(=O)c1ccc(OCP(=O)(O)O)cc1` (stereo not drawn) [OH, OH], the Ki (read-out: Ki) lay in the range of 10 to 100 pM. `CC(C)CN(CC(O)C(Cc1ccc(O)cc1)NC(=O)OC1COC2OCCC12)S(=O)(=O)c1cccc(N)c1` (stereo not drawn) [OH, m-NH2]: the “Ki (pM)” value was “+ +”. For the compound `CC(C)CN(CC(O)C(Cc1ccc(O)cc1)NC(=O)OC1COC2OCCC12)S(=O)(=O)c1ccc(N)cc1` (stereo not drawn) [OH, p-NH2], the “Ki (pM)” value is reported as “+ +”.

Regarding `COc1ccc(S(=O)(=O)N(CC(C)C)CC(O)C(Cc2ccc(OCP(=O)(OCC(F)(F)F)OCC(F)(F)F)cc2)NC(=O)OC2COC3OCCC23)cc1` (stereo not drawn) [drawing 608 R1=OCH2CF3 R2=OCH2CF3], the Ki (Ki) lay in the range of 10 to 100 pM. For the compound `CCOP(=O)(COc1ccc(CC(NC(=O)OC2COC3OCCC23)C(O)CN(CC(C)C)S(=O)(=O)c2ccc(OC)cc2)cc1)OCc1ccccc1` (stereo not drawn) [drawing 608 R1=OEt R2=OBn], the Ki (Ki) fell in the range of 10 to 100 pM. As for `COc1ccc(S(=O)(=O)N(CC(C)C)CC(O)C(Cc2ccc(OCP(=O)(O)O)cc2)NC(=O)OC2COC3OCCC23)cc1` (stereo not drawn) [drawing 608 R1=OH R2=OH], the Ki (Ki) is below 10 pM. On to `COc1ccc(S(=O)(=O)N(CC(C)C)CC(O)C(Cc2ccc(OCP(=O)(OC)OC)cc2)NC(=O)OC2COC3OCCC23)cc1` (stereo not drawn) [drawing 608 R1=OMe R2=OMe], for which the Ki (Ki) lay within 10 to 100 pM. With `COc1ccc(S(=O)(=O)N(CC(C)C)CC(O)C(Cc2ccc(OCP(=O)(OC(C)C)OC(C)C)cc2)NC(=O)OC2COC3OCCC23)cc1` (stereo not drawn) [drawing 608 R1=OiPr R2=OiPr], for the setting “Ki”, the Ki lay within 10 to 100 pM. In the case of `CCOP(=O)(COc1ccc(CC(NC(=O)OC2COC3OCCC23)C(O)CN(CC(C)C)S(=O)(=O)c2ccc(O)cc2)cc1)OCC` (stereo not drawn) [drawing 609 R1=Et R2=Et], the Ki (Ki) was below 10 pM.

On to `CC(C)CN(CC(O)C(Cc1ccc(OCP(=O)(O)O)cc1)NC(=O)OC1COC2OCCC12)S(=O)(=O)c1ccc(O)cc1` (stereo not drawn) [drawing 609 R1=OH R2=OH], for which the Ki (Ki) was below 10 pM. `CCCCOC(=O)C(CC)NP(=O)(COc1ccc(CC(NC(=O)OC2COC3OCCC23)C(O)CN(CC(C)C)S(=O)(=O)c2ccc(OC)cc2)cc1)NC(CC)C(=O)OCCCC` (stereo not drawn) [drawing 612 R1=Aba-Bu R2=Aba-Bu]: the Ki (Ki) was below 10 pM.

Regarding `CCCCOC(=O)C(C)NP(=O)(COc1ccc(CC(NC(=O)OC2COC3OCCC23)C(O)CN(CC(C)C)S(=O)(=O)c2ccc(OC)cc2)cc1)NC(C)C(=O)OCCCC` (stereo not drawn) [drawing 612 R1=Ala-Bu R2=Ala-Bu], the Ki (Ki) lay within 10 to 100 pM.

For the compound `CCOC(=O)C(C)NP(=O)(COc1ccc(CC(NC(=O)OC2COC3OCCC23)C(O)CN(CC(C)C)S(=O)(=O)c2ccc(OC)cc2)cc1)NC(C)C(=O)OCC` (stereo not drawn) [drawing 612 R1=Ala-Et R2=Ala-Et], the Ki (Ki) was 10 to 100 pM. Take `CCCCOC(=O)CNP(=O)(COc1ccc(CC(NC(=O)OC2COC3OCCC23)C(O)CN(CC(C)C)S(=O)(=O)c2ccc(OC)cc2)cc1)NCC(=O)OCCCC` (stereo not drawn) [drawing 612 R1=Gly-Bu R2=Gly-Bu]: where the note is “Ki”, the Ki is below 10 pM.

As to `CCOC(=O)CNP(=O)(COc1ccc(CC(NC(=O)OC2COC3OCCC23)C(O)CN(CC(C)C)S(=O)(=O)c2ccc(OC)cc2)cc1)NCC(=O)OCC` (stereo not drawn) [drawing 612 R1=Gly-Et R2=Gly-Et], the Ki (Ki) fell in the range of 10 to 100 pM. For `CCCCOC(=O)C(CC(C)C)NP(=O)(COc1ccc(CC(NC(=O)OC2COC3OCCC23)C(O)CN(CC(C)C)S(=O)(=O)c2ccc(OC)cc2)cc1)NC(CC(C)C)C(=O)OCCCC` (stereo not drawn) [drawing 612 R1=Leu-Bu R2=Leu-Bu], the Ki (Ki) fell in the range of 10 to 100 pM. Regarding `CCOC(=O)C(CC(C)C)NP(=O)(COc1ccc(CC(NC(=O)OC2COC3OCCC23)C(O)CN(CC(C)C)S(=O)(=O)c2ccc(OC)cc2)cc1)NC(CC(C)C)C(=O)OCC` (stereo not drawn) [drawing 612 R1=Leu-Et R2=Leu-Et], where the note is “Ki”, the Ki lay within 10 to 100 pM. As for `CCNP(=O)(COc1ccc(CC(NC(=O)OC2COC3OCCC23)C(O)CN(CC(C)C)S(=O)(=O)c2ccc(OC)cc2)cc1)NCC` (stereo not drawn) [drawing 612 R1=NHEt R2=NHEt], the Ki (Ki) was below 10 pM. Same read-out and setting: as for `CCOC(=O)C(NP(=O)(COc1ccc(CC(NC(=O)OC2COC3OCCC23)C(O)CN(CC(C)C)S(=O)(=O)c2ccc(OC)cc2)cc1)NC(C(=O)OCC)C(C)C)C(C)C` (stereo not drawn) [drawing 612 R1=Val-Et R2=Val-Et], the figure is 100 to 1000 pM.

For the compound `CCOC(=O)C(C)OP(=O)(COc1ccc(CC(NC(=O)OC2COC3OCCC23)C(O)CN(CC(C)C)S(=O)(=O)c2ccc(OC)cc2)cc1)OC(C)C(=O)OCC` (stereo not drawn) [drawing 613 R1=Lac-Et R2=Lac-Et], under “Ki”, the Ki lay in the range of 10 to 100 pM. Regarding `COc1ccc(S(=O)(=O)N(CC(C)C)CC(O)C(Cc2ccc(OCP(=O)(OC(C)C(=O)OC(C)C)OC(C)C(=O)OC(C)C)cc2)NC(=O)OC2COC3OCCC23)cc1` (stereo not drawn) [drawing 613 R1=Lac-iPr R2=Lac-iPr], the Ki (Ki) lay in the range of 10 to 100 pM. For the compound `COc1ccc(S(=O)(=O)N(CC(C)C)CC(O)C(Cc2ccc(OCP(=O)(O)NC(C)C(=O)O)cc2)NC(=O)OC2COC3OCCC23)cc1` (stereo not drawn) [drawing 614 R1=OH R2=Ala-OH], the Ki (Ki) is below 10 pM. For `COc1ccc(S(=O)(=O)N(CC(C)C)CC(O)C(Cc2ccc(OCP(=O)(O)OC(C)C(=O)O)cc2)NC(=O)OC2COC3OCCC23)cc1` [drawing 615 R1=OH R2=(R)Lac-OH], the Ki (Ki) was in the range of 10 to 100 pM.
